Values of other authors as cited in patent US9365016B2, “Fluorine-containing (meth) acrylic (co) polymer and molded body films thereof” (KANEKA CORPORATION, priority 2010, dated 2016).

What was measured:
[1] = at 25 C

## CCCC(C)(C)OOC(=O)C(C)(C)C
[1]
  solubility into water: ≤ 0.1 % by weight
other
  10-hour half-life period temperature: 53 C
